Columns and labels:
Type in all cases: in vivo, Mice
[1] = tested on: CTG-0927 HER2 positive cholangiocarcinoma PDX model; test: CTG-0927 cholangiocarcinoma PDX model, tumor growth inhibition; settings: study day 28; tucatinib 50 mg/kg orally twice per day, trastuzumab 20 mg/kg intraperitoneally once every three days
Description: (§1) The TGI index is calculated for a particular time point (e.g., a specific number of days into an experiment or clinical trial) according to the following formula: […]
(§2) where “Tx Day 0” denotes the first day that treatment is administered (i.e., the first day that an experimental therapy or a control therapy (e.g., vehicle only) is administered) and “Tx Day X” denotes X number of days after Day 0. Typically, mean volumes for treated and control groups are used. As a non-limiting example, in an experiment where study day 0 corresponds to “Tx Day 0” and the TGI index is calculated on study day 28 (i.e., “Tx Day 28”), if the mean tumor volume in both groups on study day 0 is 250 mm^3 and the mean tumor volumes in the experimental and control groups are 125 mm^3 and 750 mm^3, respectively, then the TGI index on day 28 is 125%.
(§3) Tucatinib was administered orally at a dose of 50 mg/kg twice per day for 28 days (study days 0-27). […] A vehicle-only group was included as a negative control.

[2] = tested on: NCI-H2170 NSCLC xenograft model; test: NCI-H2170 NSCLC xenograft model, tumor growth inhibition; settings: study day 39; tucatinib 50 mg/kg orally twice per day for 21 days, trastuzumab 20 mg/kg intraperitoneally twice per week, from study day 18
Description: as §1, §2
(§4) For the Calu-3 study, tucatinib was administered orally at a dose of 50 mg/kg twice per day for 21 days, beginning on study day 7. […] Seven doses of trastuzumab were administered. A vehicle-only group was included as a negative control. Three individual animals received dose holidays (one in the negative control group and two in the combination therapy group).
For the NCI-H2170 study, tucatinib was administered orally at a dose of 50 mg/kg twice per day for 21 days, beginning on study day 18. […] A vehicle-only group was included as a negative control.

[3] = tested on: GXA 3038 HER2 positive gastric cancer PDX model; test: GXA 3038 gastric cancer PDX model, tumor growth inhibition; settings: study day 28; tucatinib 50 mg/kg orally twice per day, trastuzumab 20 mg/kg intraperitoneally once every three days
Description: as §1, §2, §3

[4] = tested on: GXA 3054 HER2 positive gastric cancer PDX model; test: GXA 3054 gastric cancer PDX model, tumor growth inhibition; settings: study day 17; tucatinib 50 mg/kg orally twice per day, trastuzumab 20 mg/kg intraperitoneally once every three days
Description: as §1, §2, §3

[5] = tested on: GXA 3039 HER2 positive gastric cancer PDX model; test: GXA 3039 gastric cancer PDX model, tumor growth inhibition; settings: study day 29; tucatinib 50 mg/kg orally twice per day, trastuzumab 20 mg/kg intraperitoneally once every three days
Description: as §1, §2, §3

[6] = tested on: CTG-0784 HER2 positive CRC PDX model; test: CTG-0784 CRC PDX model, tumor growth inhibition; settings: study day 29; tucatinib 50 mg/kg orally twice per day, trastuzumab 20 mg/kg intraperitoneally once every three days
Description: as §1, §2, §3

[7] = tested on: CTG-0137 HER2 positive esophageal cancer PDX model; test: CTG-0137 esophageal cancer PDX model, tumor growth inhibition; settings: study day 15; tucatinib 50 mg/kg orally twice per day, trastuzumab 20 mg/kg intraperitoneally once every three days
Description: as §1, §2, §3

[8] = tested on: CTG-0138 HER2 positive esophageal cancer PDX model; test: CTG-0138 esophageal cancer PDX model, tumor growth inhibition; settings: study day 30; tucatinib 50 mg/kg orally twice per day, trastuzumab 20 mg/kg intraperitoneally once every three days
Description: as §1, §2, §3

[9] = tested on: Calu-3 NSCLC xenograft model; test: Calu-3 NSCLC xenograft model, tumor growth inhibition; settings: study day 28; tucatinib 50 mg/kg orally twice per day for 21 days, trastuzumab 20 mg/kg intraperitoneally once every three days, from study day 7
Description: as §1, §2, §4

For trastuzumab, the “Observed TGI (tumor growth inhibition index)” value [1] was 63%, the “Observed TGI (tumor growth inhibition index)” value [2] was 61% and the “Observed TGI (tumor growth inhibition index)” value [3] was 50%. For the same substance, the “Observed TGI (tumor growth inhibition index)” value [4] was 93%, the “Observed TGI (tumor growth inhibition index)” value [5] was 38% and the “Observed TGI (tumor growth inhibition index)” value [6] was 36%. For the same substance, the “Observed TGI (tumor growth inhibition index)” value [7] was 55%, the “Observed TGI (tumor growth inhibition index)” value [8] was −34% and the “Observed TGI (tumor growth inhibition index)” value [9] was 86%.

Reference: patent US20230270745A1 (Seagen Inc., priority 2020, published 2023)
